Data from patent publication US20150094348A1, “GPR17-MODULATING COMPOUNDS, DIAGNOSTIC AND THERAPEUTIC USES THEREOF” (Centro Cardiologico Monzino S.p.A., priority 2010, published 2015).

Sequences of proteins named here, by UniProt entry; tags and fusion partners are left off. Residues count along the entry.
UniProt Q13304, 29-367 limits assumed: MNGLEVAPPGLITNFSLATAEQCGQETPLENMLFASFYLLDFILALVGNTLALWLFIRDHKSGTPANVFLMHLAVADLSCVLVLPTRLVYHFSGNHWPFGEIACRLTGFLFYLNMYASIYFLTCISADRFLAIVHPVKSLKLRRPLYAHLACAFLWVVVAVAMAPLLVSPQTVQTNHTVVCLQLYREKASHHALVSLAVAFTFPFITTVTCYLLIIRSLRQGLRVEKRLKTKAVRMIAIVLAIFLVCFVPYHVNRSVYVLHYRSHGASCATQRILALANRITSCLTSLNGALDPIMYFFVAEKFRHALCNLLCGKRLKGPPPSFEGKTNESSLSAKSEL

Experiments:
[1] = target: T1, human receptor GPR17 (Homo sapiens, UniProt Q13304); assay: [35S]GTPγS binding assay on membranes of 1321N1 cells transfected with human GPR17; type: biochemical
T1 construct: expressed in transfected cells; host or cells: human 1321N1 astrocytoma cells, calcium phosphate transfection with pcDNA3.1; plasma membranes used
Experimental: A—The compounds according to the invention were evaluated for their functional activity on GPR17 using a well-known assay for GPCRs, the [^35S]GTPγS binding assay, which is based on the ability of the agonist to increase radioactive GTP binding when a GPCR is activated. The antagonist activity is evaluated according to the ability to counteract the increased [^35S]GTPγS binding induced by the LTC4 reference agonist.
The activation of GPCRs by agonists stimulates the dissociation of GDP from G-protein, thus increasing GTP binding in its place. This increase in GTP binding to G-protein can be quantified in vitro with [^35S]GTPγS. The effect of GPCR activation on [^35S]GTPγS binding is catalytic, because it increases the [^35S]GTPγS binding rate rather than [^35S]GTPγS binding equilibrium. […] For some GPCRs, the binding stimulated by the agonist (ie. the difference between GTP binding in the presence and absence of the agonist) increases with time, peaks and then falls to zero; optimal increases in [^35S]GTPγS binding induced by the agonist are often obtained before equilibrium is attained, rather than at equilibrium. […] The control and transfected cells were homogenised in 5 mM Tris-HCl and 2 mM EDTA (pH 7.4) and centrifuged at 48000 g for 15 min at 4° C. The resulting pellets (plasma membranes) were washed in 50 mM Tris-HCl and 10 mM MgCl2 (pH 7.4) and stored at −80° C. until use.
The Graph-Pad Prism program was used for the analysis and graphic presentation of the [^35S]GTPγS binding data. All the data are shown as the mean±SEM of three different experiments. The data were tested for statistical significance with the paired Student's t test or analysis of variance (one-way ANOVA), as appropriate. When significant differences were observed, the Newman-Keuls multiple comparison test (one-way ANOVA) was performed. A value of P<0.05 was considered significant.

[2] = system: oligodendrocyte precursor cells (OPCs); assay: Pro-myelinating activity assay on oligodendrocyte precursor cell (OPC) cultures (MBP-positive cells); type: cell-based, Sprague-Dawley rat

COc1ccc(CNC(=O)C(c2ccc(O)cc2)N(Cc2ccco2)C(=O)c2snc(C(N)=O)c2N)cc1 (centres unmarked) [Compound (III)]
% Emax vs standard [1]: 89.6%
EC50 [1]: 1.18 ± 0.08 nM
efficacy compared with reference compound LTC4 / agonist character, in words [1]: may act as a partial agonist
Emax ([1]; in % (unit assumed)): 129.7 ± 0.7
pro-myelinating activity, in words (mature cells expressing MBP) [2]: most active
